Paper PMC3880646 (Journal of medicinal chemistry, 2013)

Key:
[1] = system: SJSA-1 osteosarcoma tumor xenograft; format: in vivo
[2] = system: RS4;11 acute lymphoblastic leukemia xenograft; format: in vivo

Structure (SMILES): CC(C)(C)C[C@@H]1N[C@@H](C(=O)N[C@H]2C[C@@](C)(O)C2)[C@H](c2cccc(Cl)c2F)[C@]12C(=O)Nc1cc(Cl)ccc12 [Compound 9]
- durability of tumor regression ([1]; 100 mg/kg, 60 days after the last dose): all the mice remained tumor free
- mice with undetectable tumor ([1]; 100 mg/kg, after 10 days of dosing): 8 out of 8
- tolerability (animal weight, signs of toxicity) ([1]; 10, 30 and 100 mg/kg oral daily, entire experiment): minimal weight loss and no sign of toxicity
- durability of tumor regression ([2]; 200 mg/kg, 26 days after the last dose): still remained tumor free
- complete tumor regression ([2]; 200 mg/kg, after 7 days of dosing): Complete tumor regression was observed in all the animals
- tolerability (weight loss, signs of toxicity) ([2]; 100 and 200 mg/kg oral daily, entire experiment): no significant weight loss or other signs of toxicity
